We go through twelve substances from patent US12084523B2, “Ubiquitin high affinity cyclic peptides and methods of use thereof” (TECHNION RESEARCH & DEVELOPMENT FOUNDATION LIMITED, priority 2018, dated 2024).

One assay deals with T1, ^K48Ub4 (Homo sapiens, UniProt P0CG47).
T1 construct: solid phase peptide synthesis of Ub monomers (modified as required); made in house
Description: SPR binding of cyclic peptides to K48-linked tetra-ubiquitin. The protocol:
Surface Plasmon Resonance (SPR)
The interactions between cyclic peptides: U2i, U2ii, U4i, U4ix and Ub1, ^K48Ub2 and ^K48Ub4, were determined using BIACORE T100 instrument (GE healthcare) equipped with a biotin CAPture kit Series S chip. The buffer in all experiments contained 50 mM HEPES, pH 7.3, 150 mM NaCl, 0.05% Tween20, 2 mM DTT with 0.2% DMSO. Biotinylated Ub1, ^K48Ub2 and ^K48Ub4 were loaded to approximately equal molar amounts on the SPR chip, and various concentrations of cyclic peptides were flowed over at […] for 120 sec, before initiation of dissociation by flowing buffer over at […] for further 700 sec. Traces were fit to the simplest, two-state model for binding. Association was fit to a single exponential assuming pseudo-first order conditions, whereas the dissociation trace was fit to single exponential plus a drift term. Finally, due to the poor quality of the traces for U4ix binding ^K48Ub2, the amplitude of the association kinetic trace at different concentrations of peptide was fit to estimate the lower bound for KD.
To test the binding and specificity of the Ub2i, Ub2ii, Ub4i, Ub4ix, Ub4_a and Ub4_e cyclic peptides, each were prepared by chemical synthesis for Surface Plasmon Resonance (SPR) analysis (FIGS. 1E and 29). Each peptide was flowed over Ub1, ^K48Ub2 and […] immobilized on SPR chips. […]
Background: SPR reads the build-up and loss of mass on a sensor chip optically.

The next assay concerns the target T2, K48-Ub2 (Homo sapiens, UniProt P0CG47).
T2 construct: solid phase peptide synthesis of Ub monomers (modified as required); made in house; host or cells: total chemical synthesis (SPPS, isopeptide ligation, desulfurization)
Description: SPR binding of cyclic peptides to K48-linked di-ubiquitin.

Setting [1] is: Table 2, K48-Ub2, SPR, anchor M* as given.
[2] abbreviates: read-out: KD / binding affinity, text and figure legend, K48-Ub2.

Like-named read-outs stand apart in the source and are kept apart here.

With *FQYWOYATGVCG [Ub4_a], the Kd at ^K48Ub4 (SPR, target ^K48Ub4) was 8 nM; at ^K48Ub4 (read-out: tetrameric Ub binding affinity KD, range stated in the description, 'as exemplified') it was 6 to 10 nM; at K48-Ub2 (SPR, target ^K48Ub2) it was more than 900 nM; on K48-Ub2 (read-out: dimeric Ub binding affinity KD, range stated in the description, 'as exemplified'), more than 900 nM.
Substance M*GWFDDLYLFYAY-CG [mClBz_V10Y] showed a Kd on K48-Ub2 (setting [1]) of 5.6 nM.
On to M*GWFDDEYLFVAY-CG [J08_mClBz_L6E], for which the Kd on K48-Ub2 (setting [2]) turned out to be 5 nM.
Still for that read-out and setting: in the case of M*GWFDDLYLFVAY-CG [J08_mClBz] it was 10 nM; in that of M*GWFDDLYWFVAY-CG [J08_mClBz_L8W], 1.2 nM.
For the substance M*GWFDNLYWYITH-CG [J02_pClBz], the Kd at K48-Ub2 (setting [1]) was found to be 48 nM.
In the case of M*GWFDNLYWYITH-CG [J02_mClBz], on K48-Ub2 (setting [1]), the Kd was 16 nM.
*FQLWOHAIALCG [Ub4_e] yielded a Kd on K48-Ub2 (SPR, target ^K48Ub2) of more than 20000 nM.
Regarding *GWFDDLYLYVAYC [J08_mClBz_F9Y], the Kd is 0.58 nM at K48-Ub2 (setting [2]) and 0.55 to 0.65 nM on K48-Ub2 (read-out: dimeric and/or tetrameric Ub binding affinity KD, range stated in the description, 'as exemplified').
Consider M*GWFDDEYWFYAY-CG [mClBz_L6E_L8W_V10Y], for which the Kd is 7.2 nM on K48-Ub2 (setting [1]) and 7.6 nM on K48-Ub2 (Table 3, SPR-measured affinities of J08 analogue peptides, K48-Ub2).
M*-WYDREYYYLGYGCG [J01_mClBz]: the Kd at K48-Ub2 (setting [1]) amounted to 141 nM.
Still for that read-out and setting: in the case of M*GWFDDLYLFVAY-CG [J08_pClBz] it was 234 nM.
